Measured values as given in paper PMC9865193, “Improvement of the Chemical Reactivity of Michael Acceptor of Ethacrynic Acid Correlates with Antiproliferative Activities” (Molecules, 2023).

What was measured:
Type in all cases: cell-based, human
MCF7 cells = experiment: MTS cell growth inhibition assay, MCF7; conditions: ratio of IC50 MRC5/IC50 MCF7
Experimental: (§1) Moreover, in order to evaluate the safety index, their effect on the proliferation of human lung fibroblasts (MCR5) as a normal cell line was also studied.
(§2) All cancer cell lines (HCT116, A549, MCF7, PC3, U87-MG, SKOV3, and MRC5) were obtained from the European Collection of Cell Culture (ECACC, Salisbury, UK) or from the American Type Culture Collection (Rockville, MD, USA) and were cultured according to the supplier’s instructions. Human HCT-116 colorectal carcinoma, MCF7 breast adenocarcinoma, PC3 prostate adenocarcinoma, A549 lung carcinoma, and SK-OV-3 ovary carcinoma were grown in Gibco McCoy’s 5A supplemented with 10% fetal calf serum (FCS) and 1% glutamine. HL60 myelogenous leukemia cells were grown in RPMI 1640 supplemented with 10% fetal calf serum (FCS) and 1% glutamine. U87-MG glioblastoma and human MRC-5 cells were grown in Gibco medium DMEM supplemented with 10% fetal calf serum (FCS) and 1% glutamine. Cells were maintained at 37 °C in a humidified atmosphere containing 5% CO2. Cell growth inhibition was determined by an MTS assay according to the manufacturer’s instructions (Promega, Madison, WI, USA). Briefly, the cells were seeded in 96-well plates (2.5 × 10^3 cells/well) containing 100 μL of growth medium. […] One Solution Reagent was added for 2 h before recording absorbance at 490nm with a spectrophotometric plate reader. […]

A549 cells = experiment: MTS cell growth inhibition assay, A549; conditions: ratio of IC50 MRC5/IC50 A549
Experimental: as §1, §2

HCT116 cells = experiment: MTS cell growth inhibition assay, HCT116; conditions: ratio of IC50 MRC5/IC50 HCT116
Experimental: as §1, §2

U87-MG cells = experiment: MTS cell growth inhibition assay, U87-MG; conditions: ratio of IC50 MRC5/IC50 U87-MG
Experimental: as §1, §2

Structure (SMILES): COc1cccc2c1C(=O)c1c(O)c3c(c(O)c1C2=O)C[C@@](O)(C(=O)CO)C[C@@H]3O[C@H]1C[C@H](N)[C@H](O)[C@H](C)O1 [Doxorubicin, doxorubicin, reference compound]
- Selectivity index (SI) MRC5/MCF7 (MCF7 cells): 0.33
- Selectivity index (SI) MRC5/A549 (A549 cells): 0.70
- Selectivity index (SI) MRC5/HCT116 (HCT116 cells): 0.44
- Selectivity index (SI) MRC5/U87-MG (U87-MG cells): 0.40
